Source: US20080312230A1, “Organic Compounds” (Novartis AG, priority 2005, published 2008)

What was measured:
[1] = biological target: T1, CRTh2 receptor (Homo sapiens, UniProt Q9Y5Y4); assay: CRTH2 cAMP functional assay in CHO.K1-CRTh2 cells; type: cell-based
T1 construct: expressed in transfected cells; host or cells: CHO.K1 (Chinese Hamster Ovary)
T1 sequence (Q9Y5Y4 1-395): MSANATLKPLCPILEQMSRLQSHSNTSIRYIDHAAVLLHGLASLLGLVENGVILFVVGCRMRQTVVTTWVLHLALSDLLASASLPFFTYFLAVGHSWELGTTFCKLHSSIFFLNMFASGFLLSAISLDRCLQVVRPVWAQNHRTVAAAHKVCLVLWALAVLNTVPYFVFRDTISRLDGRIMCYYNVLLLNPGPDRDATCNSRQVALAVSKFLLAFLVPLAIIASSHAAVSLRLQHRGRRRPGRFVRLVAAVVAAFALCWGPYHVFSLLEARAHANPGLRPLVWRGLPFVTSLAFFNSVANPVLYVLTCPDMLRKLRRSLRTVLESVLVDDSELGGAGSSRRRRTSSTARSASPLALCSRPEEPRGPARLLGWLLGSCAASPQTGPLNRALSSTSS
Method: The assay plate is incubated at room temperature on a shaker for 15 minutes.
A mix of agonist (10 nM Prostaglandin D2) and 5 μM forskolin is prepared in assay stimulation buffer and added to the assay plate (5 μL/well).
In addition, a cAMP standard is serially diluted in assay stimulation buffer and added to separate empty wells on the assay plate (20 μL/well).
The assay plate is incubated at room temperature on a shaker for 60 minutes.
The resulting lysis mix is added to all wells of the assay plate (40 μL/well).
The assay plate is sealed with Topseal-S™ and incubated in the dark at room temperature on a shaker for 45 minutes. The plate is then counted using a Packard Fusion™ instrument.
The resulting counts per minute are converted to nM cAMP by using the prepared cAMP standard curve.

[2] = biological target: T1, CRTh2 receptor; assay: Filtration binding assay: [3H]-PGD2 competition on CHO.K1-CRTh2 membranes; settings: competition with 2.5 nM [3H]-PGD2, CHO.K1-CRTh2 membranes, Cheng-Prussoff; read-out: Ki values in the SPA binding assay
Method: Filtration Binding Assay Protocol
The binding of CRTh2 antagonists is determined using membranes prepared from human CRTh2-expressing Chinese Hamster Ovary cells (CHO.K1-CRTh2). To produce cell membranes CHO.K1-CRTh2 cells cultured in roller bottles are harvested using cell dissociation buffer (Invitrogen). The cells are pelleted by centrifugation (167 g, 5 min). The cell pellet is incubated in hypotonic buffer (15 mM Tris-OH, 2 mM MgCl2, 0.3 mM EDTA, 1 mM EGTA, 1× Complete™ tablet) at 4° C. for 30 min. At 4° C. cells are homogenized using a Polytron® (IKA Ultra Turrax T25) for 5 bursts of 1 second. The homogenate is centrifuged (Beckman Optima TM TL Ultracentrifuge, 48000 g, 30 min at 4° C.). […]
The binding of [^3H]-PGD2 (157 Ci/mmol) to CHO.K1-CRTh2 membranes is determined in the absence (total binding) and presence (non-specific binding) of unlabelled PGD2 (1 μM). […]
The plates are incubated at room temperature on a shaker for 1 hour, and then harvested (Tomtec Harvester 9600) onto GF/C filter plates using wash buffer (10 mM HEPES-KOH, pH 7.4). […] Plates are then counted using a Packard Top Count instrument, Plates are then read on the Packard Topcount with the 3H Scintillation program (1 min per well).
Ki (dissocation constant for the inhibition) values for the CRTh2 antagonists are reported. Ki values are determined using Sigma Plot™ software, using the Cheng-Prussoff equation. […]

| SMILES | IC50 [1] | Ki [2] |
| --- | --- | --- |
| Cc1c(CC(=O)O)c2cccnc2n1S(=O)(=O)c1ccc(F)c(C#N)c1 [Example 54, [1-(3-Cyano-4-fluoro-benzenesulfonyl)-2-methyl-1H-pyrrolo[2,3-b]pyridin-3-yl]-acetic acid] | 0.168 µM | 0.037 µM |
| Cc1c(CC(=O)O)c2cccnc2n1S(=O)(=O)c1ccc(F)c(F)c1 [Example 59, [1-(3,4-Difluoro-benzenesulfonyl)-2-methyl-1H-pyrrolo[2,3-b]pyridin-3-yl]-acetic acid] | 0.15 µM | 0.033 µM |
